# In patent US10112926B2 (priority 2014, dated 2018):
# Amino acid sequences for entries named in this document (tags omitted). A change or cut given only in a name is not applied to a line headed by its entry.
# UniProt P42336, whole entry, looked up: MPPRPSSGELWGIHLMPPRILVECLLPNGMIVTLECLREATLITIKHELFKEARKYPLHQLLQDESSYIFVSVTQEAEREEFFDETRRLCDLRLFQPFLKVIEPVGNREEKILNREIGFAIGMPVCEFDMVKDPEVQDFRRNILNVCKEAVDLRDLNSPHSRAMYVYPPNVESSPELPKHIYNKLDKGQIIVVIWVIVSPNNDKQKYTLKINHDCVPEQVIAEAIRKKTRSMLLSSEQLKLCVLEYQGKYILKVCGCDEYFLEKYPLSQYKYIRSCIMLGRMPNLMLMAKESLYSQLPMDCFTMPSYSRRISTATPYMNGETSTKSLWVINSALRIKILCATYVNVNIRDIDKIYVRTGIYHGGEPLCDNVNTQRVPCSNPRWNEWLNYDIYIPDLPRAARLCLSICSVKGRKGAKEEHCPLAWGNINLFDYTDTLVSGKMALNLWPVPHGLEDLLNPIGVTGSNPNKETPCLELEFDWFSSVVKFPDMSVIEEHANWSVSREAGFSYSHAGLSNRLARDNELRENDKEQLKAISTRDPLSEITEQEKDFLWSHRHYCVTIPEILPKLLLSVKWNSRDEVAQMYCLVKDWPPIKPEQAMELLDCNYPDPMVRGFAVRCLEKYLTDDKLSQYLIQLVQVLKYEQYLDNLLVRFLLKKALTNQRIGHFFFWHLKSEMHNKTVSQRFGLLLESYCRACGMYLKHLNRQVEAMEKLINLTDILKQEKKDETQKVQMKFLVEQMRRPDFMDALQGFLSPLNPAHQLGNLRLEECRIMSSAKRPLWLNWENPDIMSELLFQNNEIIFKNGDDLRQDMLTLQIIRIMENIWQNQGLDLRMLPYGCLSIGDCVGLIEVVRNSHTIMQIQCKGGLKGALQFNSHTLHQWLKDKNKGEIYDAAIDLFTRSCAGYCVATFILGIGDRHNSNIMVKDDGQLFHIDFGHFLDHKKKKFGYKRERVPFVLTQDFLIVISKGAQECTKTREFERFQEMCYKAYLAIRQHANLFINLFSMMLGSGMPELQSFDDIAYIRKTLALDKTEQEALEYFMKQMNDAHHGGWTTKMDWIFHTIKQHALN
# UniProt P42338: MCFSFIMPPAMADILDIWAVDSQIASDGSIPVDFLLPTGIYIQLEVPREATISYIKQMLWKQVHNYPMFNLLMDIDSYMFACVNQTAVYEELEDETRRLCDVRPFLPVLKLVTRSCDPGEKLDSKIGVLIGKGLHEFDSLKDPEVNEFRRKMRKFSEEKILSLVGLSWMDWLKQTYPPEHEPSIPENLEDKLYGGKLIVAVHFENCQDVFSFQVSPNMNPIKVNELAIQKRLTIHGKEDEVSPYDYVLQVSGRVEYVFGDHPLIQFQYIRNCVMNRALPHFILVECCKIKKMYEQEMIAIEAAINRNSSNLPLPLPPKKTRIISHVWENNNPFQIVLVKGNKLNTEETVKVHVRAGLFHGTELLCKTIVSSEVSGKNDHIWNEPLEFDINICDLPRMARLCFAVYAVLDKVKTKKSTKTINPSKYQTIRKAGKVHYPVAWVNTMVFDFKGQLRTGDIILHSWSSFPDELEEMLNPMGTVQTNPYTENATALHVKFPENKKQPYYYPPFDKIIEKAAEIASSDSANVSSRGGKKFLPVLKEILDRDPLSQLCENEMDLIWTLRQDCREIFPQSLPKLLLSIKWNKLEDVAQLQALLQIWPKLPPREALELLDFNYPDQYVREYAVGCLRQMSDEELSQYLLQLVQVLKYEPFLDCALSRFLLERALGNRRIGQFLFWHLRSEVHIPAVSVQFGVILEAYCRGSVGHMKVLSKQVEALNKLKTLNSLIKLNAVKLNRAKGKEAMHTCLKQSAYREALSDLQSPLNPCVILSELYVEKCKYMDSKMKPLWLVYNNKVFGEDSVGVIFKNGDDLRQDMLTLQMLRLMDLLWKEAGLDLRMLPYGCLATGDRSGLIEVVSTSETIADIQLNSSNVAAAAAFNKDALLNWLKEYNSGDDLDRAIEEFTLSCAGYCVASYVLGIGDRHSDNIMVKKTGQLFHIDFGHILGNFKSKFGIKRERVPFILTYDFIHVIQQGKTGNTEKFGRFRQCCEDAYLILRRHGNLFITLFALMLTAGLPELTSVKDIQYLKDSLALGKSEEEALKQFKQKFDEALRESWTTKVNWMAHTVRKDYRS
# UniProt Q9UBF8: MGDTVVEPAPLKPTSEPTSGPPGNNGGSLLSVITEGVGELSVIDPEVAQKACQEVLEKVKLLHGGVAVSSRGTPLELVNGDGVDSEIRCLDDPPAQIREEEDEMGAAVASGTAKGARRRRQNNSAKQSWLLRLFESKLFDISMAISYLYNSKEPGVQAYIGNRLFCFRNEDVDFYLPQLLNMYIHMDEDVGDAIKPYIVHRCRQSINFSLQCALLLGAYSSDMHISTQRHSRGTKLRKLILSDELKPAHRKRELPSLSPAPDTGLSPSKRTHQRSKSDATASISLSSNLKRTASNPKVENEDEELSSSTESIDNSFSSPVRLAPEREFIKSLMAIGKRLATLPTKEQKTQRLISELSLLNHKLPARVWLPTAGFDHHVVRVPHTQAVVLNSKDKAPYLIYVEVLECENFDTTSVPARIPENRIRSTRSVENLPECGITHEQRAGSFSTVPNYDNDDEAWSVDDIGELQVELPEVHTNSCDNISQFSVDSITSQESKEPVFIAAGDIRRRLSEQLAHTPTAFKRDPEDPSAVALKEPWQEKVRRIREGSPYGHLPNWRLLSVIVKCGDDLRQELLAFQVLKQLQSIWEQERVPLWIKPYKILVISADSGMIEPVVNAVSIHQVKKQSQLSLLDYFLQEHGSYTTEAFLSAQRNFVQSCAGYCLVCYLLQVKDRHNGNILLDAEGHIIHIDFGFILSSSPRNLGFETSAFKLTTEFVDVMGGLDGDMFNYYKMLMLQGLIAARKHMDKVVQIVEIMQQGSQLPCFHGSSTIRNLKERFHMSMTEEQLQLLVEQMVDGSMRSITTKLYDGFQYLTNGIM
# UniProt Q8NEB9, whole entry: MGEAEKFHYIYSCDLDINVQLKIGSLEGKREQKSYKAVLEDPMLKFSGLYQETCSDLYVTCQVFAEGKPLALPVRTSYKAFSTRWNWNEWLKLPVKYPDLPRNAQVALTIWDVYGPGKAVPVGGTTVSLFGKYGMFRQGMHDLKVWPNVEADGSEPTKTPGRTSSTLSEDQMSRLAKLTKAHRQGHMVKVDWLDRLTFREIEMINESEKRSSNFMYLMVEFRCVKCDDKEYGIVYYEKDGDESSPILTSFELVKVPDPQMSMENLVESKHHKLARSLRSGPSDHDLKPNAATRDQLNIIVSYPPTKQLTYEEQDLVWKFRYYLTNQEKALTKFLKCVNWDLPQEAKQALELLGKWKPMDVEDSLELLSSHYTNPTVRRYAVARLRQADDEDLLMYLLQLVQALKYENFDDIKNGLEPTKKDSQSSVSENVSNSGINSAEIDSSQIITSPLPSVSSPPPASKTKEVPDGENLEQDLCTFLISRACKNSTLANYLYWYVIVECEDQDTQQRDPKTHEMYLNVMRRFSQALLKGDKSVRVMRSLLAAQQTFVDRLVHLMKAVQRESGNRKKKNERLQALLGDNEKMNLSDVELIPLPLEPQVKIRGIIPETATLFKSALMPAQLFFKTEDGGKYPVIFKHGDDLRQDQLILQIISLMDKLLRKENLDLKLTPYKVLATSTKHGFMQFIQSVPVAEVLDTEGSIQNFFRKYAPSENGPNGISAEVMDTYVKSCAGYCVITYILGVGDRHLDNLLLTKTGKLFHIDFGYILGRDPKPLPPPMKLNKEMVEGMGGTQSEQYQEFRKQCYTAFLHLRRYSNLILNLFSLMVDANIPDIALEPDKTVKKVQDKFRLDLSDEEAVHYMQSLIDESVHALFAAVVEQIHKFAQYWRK
# UniProt P48736: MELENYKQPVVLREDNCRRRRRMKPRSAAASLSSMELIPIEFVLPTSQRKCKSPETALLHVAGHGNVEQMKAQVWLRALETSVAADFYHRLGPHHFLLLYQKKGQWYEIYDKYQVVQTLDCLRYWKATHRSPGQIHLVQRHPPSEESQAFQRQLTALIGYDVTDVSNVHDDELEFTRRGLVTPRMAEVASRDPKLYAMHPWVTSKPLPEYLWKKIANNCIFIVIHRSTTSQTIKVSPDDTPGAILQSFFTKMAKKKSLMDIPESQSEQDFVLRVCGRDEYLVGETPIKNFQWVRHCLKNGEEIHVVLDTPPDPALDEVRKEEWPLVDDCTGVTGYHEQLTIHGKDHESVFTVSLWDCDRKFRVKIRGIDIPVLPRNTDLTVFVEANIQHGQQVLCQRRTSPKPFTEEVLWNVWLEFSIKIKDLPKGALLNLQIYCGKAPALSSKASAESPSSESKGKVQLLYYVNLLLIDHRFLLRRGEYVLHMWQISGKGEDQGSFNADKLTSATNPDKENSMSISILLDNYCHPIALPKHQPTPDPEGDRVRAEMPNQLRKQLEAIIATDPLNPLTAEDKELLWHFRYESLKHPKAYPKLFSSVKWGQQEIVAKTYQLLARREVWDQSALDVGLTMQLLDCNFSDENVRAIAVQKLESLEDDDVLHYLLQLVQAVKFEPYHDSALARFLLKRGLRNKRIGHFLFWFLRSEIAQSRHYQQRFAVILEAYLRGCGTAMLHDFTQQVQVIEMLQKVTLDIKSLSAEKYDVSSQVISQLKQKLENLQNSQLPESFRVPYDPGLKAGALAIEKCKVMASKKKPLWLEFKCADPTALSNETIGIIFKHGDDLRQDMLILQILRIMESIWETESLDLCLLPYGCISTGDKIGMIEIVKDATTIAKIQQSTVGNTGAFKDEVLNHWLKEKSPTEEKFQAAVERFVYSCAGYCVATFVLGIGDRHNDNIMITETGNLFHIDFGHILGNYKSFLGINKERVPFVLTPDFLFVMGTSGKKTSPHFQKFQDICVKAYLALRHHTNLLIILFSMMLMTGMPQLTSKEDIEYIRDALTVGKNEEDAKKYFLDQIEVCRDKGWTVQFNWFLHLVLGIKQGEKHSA
# UniProt O00329: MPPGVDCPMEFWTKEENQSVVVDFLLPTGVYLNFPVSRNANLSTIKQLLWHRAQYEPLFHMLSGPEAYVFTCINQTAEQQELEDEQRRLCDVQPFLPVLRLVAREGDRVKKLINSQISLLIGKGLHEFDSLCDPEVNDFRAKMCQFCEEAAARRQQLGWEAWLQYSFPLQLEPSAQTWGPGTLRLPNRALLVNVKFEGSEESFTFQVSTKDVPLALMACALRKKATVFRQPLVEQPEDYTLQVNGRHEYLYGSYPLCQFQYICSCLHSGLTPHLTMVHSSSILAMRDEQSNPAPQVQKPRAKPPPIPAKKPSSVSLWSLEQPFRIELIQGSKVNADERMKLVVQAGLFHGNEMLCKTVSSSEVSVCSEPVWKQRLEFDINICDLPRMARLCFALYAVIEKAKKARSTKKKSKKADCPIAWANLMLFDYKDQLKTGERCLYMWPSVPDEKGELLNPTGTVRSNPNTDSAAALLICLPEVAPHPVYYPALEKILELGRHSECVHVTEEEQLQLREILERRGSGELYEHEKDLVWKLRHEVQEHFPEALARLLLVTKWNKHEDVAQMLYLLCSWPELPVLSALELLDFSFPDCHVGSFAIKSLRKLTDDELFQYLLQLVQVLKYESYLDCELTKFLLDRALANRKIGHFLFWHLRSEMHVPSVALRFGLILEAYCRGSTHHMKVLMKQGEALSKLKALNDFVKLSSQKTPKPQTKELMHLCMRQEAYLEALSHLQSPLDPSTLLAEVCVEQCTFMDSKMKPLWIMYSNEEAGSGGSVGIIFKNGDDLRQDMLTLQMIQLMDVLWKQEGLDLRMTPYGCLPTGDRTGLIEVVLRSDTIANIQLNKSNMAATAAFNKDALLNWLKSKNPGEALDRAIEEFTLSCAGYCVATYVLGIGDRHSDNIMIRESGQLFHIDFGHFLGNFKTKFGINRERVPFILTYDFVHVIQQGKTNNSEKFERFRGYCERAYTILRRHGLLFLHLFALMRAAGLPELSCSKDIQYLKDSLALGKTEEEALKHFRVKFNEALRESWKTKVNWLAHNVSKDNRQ
# Columns and labels:
# PI 3-kinase alpha [1] = target: T1, PI 3-kinase alpha (Homo sapiens (Human), UniProt P42336)
# PI 3-kinase beta [2] = target: T2, PI 3-kinase beta (Homo sapiens (Human), UniProt P42338)
# PI 4-kinase beta [3] = target: T3, PI 4-kinase beta (Homo sapiens (Human), UniProt Q9UBF8); settings: read-out: Assay D PI4Kβ IC50
# [4] = target: T4, PI 3-kinase beta (Rat-1 pBABEpuro Myr-HA-hp110 beta cells) (Homo sapiens (Human), UniProt P42338); test: cell-based
# [5] = target: T5, PI 3-kinase alpha (Rat-1 pBABEpuro Myr-HA-hp110 alpha cells) (Homo sapiens (Human), UniProt P42336); test: cell-based
# PI 3-kinase alpha [6] = target: T1, PI 3-kinase alpha; test: biochemical; settings: Assay A PI3Kα IC50 (μM)
# PI 3-kinase beta [7] = target: T2, PI 3-kinase beta; test: biochemical; settings: Assay B PI3Kβ IC50 (μM)
# Vps34 [8] = target: T6, Vps34 (Homo sapiens (Human), UniProt Q8NEB9); test: biochemical
# mTOR = mTOR (Homo sapiens (Human), UniProt P42345); test: biochemical; settings: Assay G mTOR IC50 (μM)
# [9] = rat, microsomes, pH 7.4
# PI 3-kinase gamma = PI 3-kinase gamma (Homo sapiens (Human), UniProt P48736); settings: read-out: Assay E PI3Kγ
# PI 3-kinase delta = PI 3-kinase delta (Homo sapiens (Human), UniProt O00329)
# [10] = target: T7, PI 3-kinase gamma (U937 cells, MIP1α-stimulated AKT phosphorylation) (Homo sapiens (Human), UniProt P48736); settings: read-out: Assay K1 PI3Kγ
# [11] = target: T7, PI 3-kinase gamma (U937 cells, MIP1α-stimulated AKT phosphorylation); settings: read-out: Assay K2 PI3Kγ
# PI 4-kinase beta [12] = target: T3, PI 4-kinase beta; test: biochemical
# [13] = target: T4, PI 3-kinase beta (Rat-1 pBABEpuro Myr-HA-hp110 beta cells); test: cell-based; remark: listed apart in the source
# [14] = target: PI 3-kinase delta (Rat-1 pBABEpuro Myr-HA-hp110 delta cells) (Homo sapiens (Human), UniProt O00329); test: cell-based
# Vps34 [15] = target: T6, Vps34; settings: read-out: Assay C VPS34 IC50
# [16] = target: T4, PI 3-kinase beta (Rat-1 pBABEpuro Myr-HA-hp110 beta cells); settings: read-out: Assay I PI3Kβ IC50
# [17] = target: T5, PI 3-kinase alpha (Rat-1 pBABEpuro Myr-HA-hp110 alpha cells); test: cell-based; remark: listed apart in the source
# [18] = target: T7, PI 3-kinase gamma (U937 cells, MIP1α-stimulated AKT phosphorylation); test: cell-based
SMILES,IC50 ([4]; Assay I PI3Kβ IC50),IC50 ([5]; Assay H PI3Kα IC50),IC50 (PI 3-kinase alpha [6]),IC50 (PI 3-kinase beta [7]),IC50 (Vps34 [8]),IC50 (mTOR),IC50 (PI 3-kinase alpha [1]; read-out: Assay A PI3Kα),IC50 (PI 3-kinase beta [2]; read-out: Assay B PI3Kβ),IC50 (PI 3-kinase gamma),IC50 (PI 3-kinase delta; read-out: Assay F PI3Kδ),IC50 ([5]; Assay H PI3Kα),IC50 ([4]; Assay I PI3Kβ),IC50 (PI 4-kinase beta [12]; Assay D PI4Kβ),other results
"CCN1CCC[C@H]1CNS(=O)(=O)c1ccc(C)c(-c2cnc(N)c(-c3cc(C)no3)c2)c1 [Example 37.33, (S)-3-(6-Amino-5-(3-methylisoxazol-5-yl)pyridin-3-yl)-N-((1-ethylpyrrolidin-2-yl)methyl)-4-methylbenzenesulfonamide]",> 10000 nM,,,,,,,,,,,,,IC50 (PI 3-kinase alpha [1]; read-out: Assay A PI3Kα IC50): 2500 nM; IC50 (PI 3-kinase beta [2]; read-out: Assay B PI3Kβ IC50): 6500 nM; IC50 (PI 4-kinase beta [3]): > 10000 nM
"Cc1noc(-c2cc(-c3cc(S(=O)(=O)NC4CC5(CC(O)C5)C4)ccc3C)cnc2N)n1 (racemic) [Example 8, 3-[6-Amino-5-(3-methyl-[1,2,4]oxadiazol-5-yl)-pyridin-3-yl]-N-(6-hydroxy-spiro[3.3]hept-2-yl)-4-methyl-benzenesulfonamide (racemate)]",4680 nM,650 nM,0.06 µM,0.43 µM,> 10000 nM,> 10 µM,,,,,,,,
"Cc1noc(-c2cc(-c3cc(S(=O)(=O)N[C@H]4CC5(C[C@@H](O)C5)C4)ccc3C)cnc2N)n1 (single isomer, unassigned) [Example 8.1, (R) or (S)-3-[6-Amino-5-(3-methyl-[1,2,4]oxadiazol-5-yl)-pyridin-3-yl]-N-(6-hydroxy-spiro[3.3]hept-2-yl)-4-methyl-benzenesulfonamide hydrochloride]",980 nM,310 nM,0.02 µM,0.36 µM,> 10000 nM,0.98 µM,,,,,,,,Assay M RLM CI(int) [9]: 153 µL/min/mg
"Cc1ccc(S(=O)(=O)N2CCOCC2)cc1-c1cnc(N)c(C(=O)c2cccnc2)c1 [(i), reference compound]",,,,,,,250 nM,1240 nM,64 nM,630 nM,970 nM,3770 nM,3.16 µM,IC50 [10]: 526 nM; IC50 [11]: 838 nM
"COCCNS(=O)(=O)c1cccc(-c2cnc(N)c(C(=O)c3cccnc3)n2)c1 [(iv), reference compound]",,,,,1760 nM,,490 nM,1270 nM,60 nM,1500 nM,930 nM,3960 nM,3.76 µM,IC50 [10]: 128 nM; IC50 [11]: 264 nM
"Cc1nc(N)ncc1-c1ccc(Cl)c(S(=O)(=O)NCCO)c1 [(xii), reference compound]",,,,,,,3320 nM,1190 nM,753 nM,6010 nM,,,,IC50 [13]: 4370 nM; IC50 [14]: 5550 nM
"Nc1ncc(-c2ccc(Cl)c(S(=O)(=O)N[C@H]3CC[C@H](O)CC3)c2)nc1C(=O)c1cccnc1 [(v), reference compound]",,,,,910 nM,,70 nM,140 nM,247 nM,1970 nM,180 nM,230 nM,0.16 µM,
"Cc1cc(-c2cc(-c3cc(S(=O)(=O)NCC4CCCOC4)ccc3C)cnc2N)on1 (single isomer, unassigned) [Example 23b, (R or S)-3-(6-amino-5-(3-methylisoxazol-5-yl)pyridin-3-yl)-4-methyl-N-((tetrahydro-2H-pyran-3-yl)methyl)benzenesulfonamide]",,3170 nM,,1.2 µM,,,,,,,,,,IC50 (PI 3-kinase alpha [1]; read-out: Assay A PI3Kα IC50): 260 nM; IC50 (Vps34 [15]): > 10000 nM; IC50 [16]: > 3000 nM; IC50 (PI 4-kinase beta [12]; Assay D PI4Kβ IC50 (μM)): 3 µM
"Cc1cc(-c2cc(-c3cc(S(=O)(=O)N[C@H]4COC[C@@H]4O)ccc3C)cnc2N)on1 (racemic) [Example 101.1, 3-(6-amino-5-(3-methylisoxazol-5-yl)pyridin-3-yl)-N-(trans-4-hydroxytetrahydrofuran-3-yl)-4-methylbenzenesulfonamide:trifluoroacetic acid 1:1]",,,0.52 µM,4.7 µM,> 10000 nM,> 10 µM,,,,,,,,IC50 [17]: > 10000 nM; IC50 [13]: > 10000 nM
"Cc1cc(-c2cc(-c3cc(S(=O)(=O)N[C@H]4CCC[C@@H]4O)ccc3C)cnc2N)on1 (racemic) [Example 101.2, 3-(6-amino-5-(3-methylisoxazol-5-yl)pyridin-3-yl)-N-((trans)-2-hydroxycyclopentyl)-4-methylbenzenesulfonamide]",,,0.44 µM,,> 10000 nM,> 10 µM,,,,,,,,IC50 [17]: > 10000 nM; IC50 [13]: > 10000 nM
"COCCNS(=O)(=O)c1cc(-c2cnc(N)c(C(=O)c3cccnc3)n2)ccc1Cl [(vi), reference compound]",,,,,2380 nM,,90 nM,190 nM,34 nM,450 nM,170 nM,260 nM,0.61 µM,IC50 [10]: 182 nM
"Cc1noc(-c2cc(-c3cc(S(=O)(=O)N[C@H]4CC5(C[C@@H](O)C5)C4)ccc3C)cnc2N)n1 (single isomer, unassigned) [Example 8.2, (R) or (S)-3-[6-Amino-5-(3-methyl-[1,2,4]oxadiazol-5-yl)-pyridin-3-yl]-N-(6-hydroxy-spiro[3.3]hept-2-yl)-4-methyl-benzenesulfonamide hydrochloride]",1430 nM,540 nM,0.04 µM,2.1 µM,,8.2 µM,,,,,,,,IC50 (Vps34 [15]): > 10000 nM; Assay M RLM CI(int) [9]: 132 µL/min/mg
"Cc1noc(-c2cc(-c3cc(S(=O)(=O)NC4CC(O)C4)ccc3C)cnc2N)n1 (mixture of isomers) [Example 5.5, Diastereomers of 3-(6-Amino-5-(3-methyl-1,2,4-oxadiazol-5-yl)pyridin-3-yl)-N-(3-hydroxycyclobutyl)-4-methylbenzene sulfonamide hydrochloride]",> 10000 nM,4430 nM,,,,,,,,,,,,IC50 (PI 3-kinase alpha [1]; read-out: Assay A PI3Kα IC50): 320 nM; IC50 (PI 3-kinase beta [2]; read-out: Assay B PI3Kβ IC50): 1000 nM; IC50 (PI 4-kinase beta [3]): 4000 nM
"Cc1cc(-c2cc(-c3cc(S(=O)(=O)NC[C@@H]4CCCO4)ccc3C)cnc2N)on1 [Example 40, (S)-3-(6-Amino-5-(3-methylisoxazol-5-yl)pyridin-3-yl)-4-methyl-N-((tetrahydrofuran-2-yl)methyl)benzenesulfonamide]",,,,,,,,,,,,,,IC50 (PI 3-kinase delta; read-out: Assay F PI3Kδ IC50): 380 nM; IC50 [18]: 457 nM
"Cc1ccc(S(=O)(=O)N2CCOCC2)cc1-c1cnc(N)c(C(=O)c2cccnc2)n1 [(ix), reference compound]",,,,,6310 nM,,780 nM,630 nM,7 nM,80 nM,850 nM,2290 nM,4.01 µM,IC50 [10]: 20 nM
"Cc1noc(-c2cc(-c3cc(S(=O)(=O)NCC(C)O)ccc3C)cnc2N)n1 (racemic) [Example 108, Rac-3-(6-amino-5-(3-methyl-1,2,4-oxadiazol-5-yl)pyridin-3-yl)-N-(2-hydroxypropyl)-4-methylbenzenesulfonamide]",3310 nM,> 10000 nM,0.64 µM,7.3 µM,> 10000 nM,> 10 µM,,,,,,,,IC50 (PI 4-kinase beta [12]; Assay D PI4Kβ IC50 (μM)): 5.9 µM

# Structures can show the parent of a compound that is named as a salt. Where two headings read alike, the source gives them in different places.
